Data as given in patent publication US20180044433A1.

Biological target: type 1 collagen
Assay: ELISA, coll1 plated in scalar doses, JMJD6v2 rec 10 nM, anti-FLAG (DDK) detection

lowest plated dose at which binding is detected: 0.016 pmoles/well
Substance: recombinant human JMJD6 variant 2 with C-terminal FLAG (DDK) (from UniProt Q6NYC1 1-403) (enzyme)
